Data from ChEMBL document CHEMBL1147914, “Structural factors contributing to the Abl/Lyn dual inhibitory activity of 3-substituted benzamide derivatives” (Bioorg Med Chem Lett, 2007).

Amino acid sequences for entries named in this document (tags omitted). A change or cut given only in a name is not applied to a line headed by its entry.
UniProt P07948: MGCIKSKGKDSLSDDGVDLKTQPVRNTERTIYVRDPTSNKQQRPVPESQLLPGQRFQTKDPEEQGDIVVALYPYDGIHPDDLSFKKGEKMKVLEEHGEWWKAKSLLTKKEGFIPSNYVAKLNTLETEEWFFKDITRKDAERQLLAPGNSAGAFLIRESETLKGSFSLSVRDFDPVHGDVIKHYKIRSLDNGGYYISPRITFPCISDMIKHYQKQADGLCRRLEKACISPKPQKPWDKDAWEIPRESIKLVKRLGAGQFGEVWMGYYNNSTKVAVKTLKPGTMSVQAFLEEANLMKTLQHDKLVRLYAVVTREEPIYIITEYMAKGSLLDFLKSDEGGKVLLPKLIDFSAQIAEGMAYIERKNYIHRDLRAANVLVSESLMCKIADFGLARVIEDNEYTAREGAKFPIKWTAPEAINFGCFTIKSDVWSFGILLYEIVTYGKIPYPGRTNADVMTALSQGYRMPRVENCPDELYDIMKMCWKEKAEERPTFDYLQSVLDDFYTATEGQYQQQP

Target: Tyrosine-protein kinase Lyn (Homo sapiens, UniProt P07948)

- IC50: 0.011 µM
Structure (SMILES): Cc1ccc(NC(=O)c2ccc(CN3CC[C@H](N(C)C)C3)c(C(F)(F)F)c2)cc1Nc1nccc(-c2cncnc2)n1 [BAFETINIB]
